# Test results published in PubChem BioAssay AID651702 (NMMLSC, 2012).
# Only a part is listed here, and it is no random draw. Active and inactive are the calls of the source.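 The calls were made as follows: active = inhibition above about 55% (limit read from the data); inconclusive = no clear call, values can overlap the other calls; inactive = the rest.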
# Assay: LAMP-1 surface exposure blockers, TALL-104 cells – cell-based, flow cytometry, MLPCN library, primary screen (AID 651702)
# Conditions: TALL-104 LAMP-1 surface exposure, at 10 µM, stronger effect = higher value, cells stimulated with thapsigargin and PMA
row,Structure (SMILES),inhibition
1,Cc1ccc(OP(=O)(Nc2ccccn2)Oc2ccc(C)cc2)cc1,inactive: -1.3%
2,CC(=O)NC(SC(=S)N(CC(C)C)CC(C)C)C(Cl)(Cl)Cl (stereo not given),inactive: -1.7%
3,COC(=O)c1cc2c(s1)N=C(c1ccccc1)N(C)P2(=O)N1CCOCC1 (stereo not given),inactive: 1%
4,O=P1(N(CCCl)CCCl)OCCC2CCCCN21 (stereo not given),inactive: 6.8%
5,Cc1ccc(NP(=O)(Oc2cccc(C)c2)Oc2cccc(C)c2)nc1,inactive: 5.5%
6,c1ccc(-c2nn[nH]n2)c(-c2nn[nH]n2)c1,inactive: -5.6%
7,CCNC(=S)/N=C(\N)N[N+](=O)[O-],inactive: -2.7%
8,O=C(NC1CCS(=O)(=O)C1)NP(=S)(Oc1ccccc1)Oc1ccccc1 (stereo not given),inactive: 4.9%
9,CC(=O)Nc1ccc(Oc2c([N+](=O)[O-])cc([N+](=O)[O-])cc2[N+](=O)[O-])cc1,inactive: -0.5%
10,CC(=O)Nc1ccc([As](=O)(O)O)c(O)c1,inactive: 0.5%
11,C[C@H]1OP(=O)(Oc2ccccc2)C[C@@H]2O[C@@H]21 (stereo not given in full),inactive: -3.8%
12,C[C@@H]1C=CCP(=O)(Oc2ccccc2)O1 (stereo not given in full),inactive: -3.7%
13,Cc1ccccc1CN(C)C(=O)COC(=O)C(O)(c1ccccc1)c1ccccc1,inactive: -4.3%
14,COC(=O)C1(C)COP(=O)(NCc2ccccc2)OC1 (stereo not given),inactive: -1.5%
15,CC(=O)c1ccc(N2CC2c2ccncc2)cc1 (stereo not given),inactive: 11.6%
16,N#C/C(=C\c1ccc(N(CCBr)CCBr)cc1)C(N)=O,inactive: -5.2%
17,CC(C)(C)C(=O)NC(Sc1ccccc1)C(Cl)(Cl)Cl (stereo not given),inactive: -1.4%
18,CCc1cc(O)c([N+](=O)[O-])c(C)c1[N+](=O)[O-],inactive: 6.4%
19,CCOc1ccc(C2=NCC(CBr)S2)cc1 (stereo not given),inactive: -0.1%
20,O=P1(Nc2nc3ccc(Cl)cc3s2)COc2ccccc2O1 (stereo not given),inactive: -1.9%
21,CCOP(=O)(Nc1cccc2ccccc12)OCC,inactive: 9%
22,COc1cc(C2NCCC3(OCCO3)C2(C)C)cc(OC)c1OC (stereo not given),inactive: 7.1%

row,Structure (SMILES),inhibition
1,Nc1cccc2c([As](=O)(O)O)cccc12,inactive: -6.9%
2,Cc1ccc(NCCc2c([N+](=O)[O-])cc([N+](=O)[O-])cc2[N+](=O)[O-])cc1,inactive: 23.6%
3,CCCOP(=S)(Nc1nc(N)cc(=O)[nH]1)OCCC,inactive: -5.1%
4,Cc1cccc(OCC(=O)OC2CN3CCC2CC3)c1 (stereo not given),inactive: -2.8%
5,O=[As](O)(c1cccc(O)c1)c1cccc(O)c1,inactive: 0.7%
6,O=C(OC1CN2CCC1CC2)c1ccc(Cl)cc1 (stereo not given),inactive: 1.6%
7,CS(=O)(=O)c1ccc(Cl)c(NC(=O)COC(=O)C(O)(c2ccccc2)c2ccccc2)c1,inactive: -2.2%
8,O=[As](O)(O)c1cccnc1,inactive: 1.4%
9,COc1cc(C(=O)NCC2(N3CCOCC3)CCCCC2)cc(Cl)c1OC(C)C,inactive: -0.9%
10,CN(C(=O)Cc1ccccc1)[C@@H]1CC[C@]2(CCCO2)C[C@H]1N1CCCC1,inactive: 3%
11,CCOP1(=S)c2c(C)nn(CCC#N)c2N=C(c2ccc(F)cc2)N1C (stereo not given),inactive: 1.3%
12,N#CCCN(C(=O)COC(=O)C(O)(c1ccccc1)c1ccccc1)c1ccc(F)cc1,inactive: 3.9%
13,CN(C(=O)Cc1ccc(Cl)c(Cl)c1)[C@H]1CC[C@@]2(CCCO2)C[C@@H]1N1CCCC1,inactive: -1.1%
14,O=[N+]([O-])c1ccc2c(c1)nnn2O,inactive: -0.7%
15,CN(C)C(=O)c1cc([N+](=O)[O-])cc2c1-c1c(cc([N+](=O)[O-])cc1[N+](=O)[O-])C2=O,active: 77.5%
16,NC(=O)Nc1ccc([As](=O)(O)O)cc1,inactive: 3%
17,Nc1ccccc1[As](=O)(O)c1ccccc1,inactive: 1.8%
18,O=C(O)COc1ccc([As](=O)(O)O)cc1[N+](=O)[O-],inactive: 8.1%
19,O=P(Nc1nccs1)(Oc1ccccc1)Oc1ccccc1,inactive: -4.9%
20,O=P(Nc1nccs1)(c1ccccc1)c1nc2ccccc2s1 (stereo not given),inactive: 4.4%
21,CCOP1(=S)c2c(C)nn(CCC#N)c2N=C(c2ccccc2F)N1C (stereo not given),inactive: -3.1%
22,CS(=O)(=O)c1cc([N+](=O)[O-])c2no[n+]([O-])c2c1,inactive: -5.8%

row,Structure (SMILES),inhibition
1,Nc1cccc([As](=O)(O)c2ccccc2)c1,inactive: 0.3%
2,O=[As](O)(c1cccs1)c1cccs1,inactive: -13.7%
3,Cc1ccc(OCC(=O)OC2CN3CCC2CC3)cc1 (stereo not given),inactive: 0%
4,O=P1(Nc2ccc(Br)cn2)COc2ccccc2OC1,inactive: -2.7%
5,NS(=O)(=O)c1cccc(NC(=O)COC(=O)C(O)(c2ccccc2)c2ccccc2)c1,inactive: -3.2%
6,Cc1ccc(S(=O)(=O)N(CCCN)CCCc2c(C)nc(N)[nH]c2=O)cc1,inactive: -13%
7,O=P1(Nc2ncccn2)COc2ccccc2OC1,inactive: 0.9%
8,CN(C)C1(CNC(=O)c2ccc(S(C)(=O)=O)cc2)CCCCC1,inactive: -3.7%
9,CCCC1OP(=O)(Nc2ccccc2)OCC1CC (stereo not given),inactive: -3.4%
10,O=C(/C=C/c1ccccc1)OC1CN2CCC1CC2 (stereo not given),inactive: -2.5%
11,CC1CCC(C(C)C)C(OP(=O)(Nc2ccccn2)c2ccccc2)C1 (stereo not given),inactive: 3.7%
12,Cc1ccc(C(=O)OC2CN3CCC2CC3)cc1 (stereo not given),inactive: -9.7%
13,Cc1nn(-c2ccccc2)c2c1P(=O)(N1CCOCC1)N(C)C(c1ccccc1)=N2 (stereo not given),inactive: 0.3%
14,CC(C)/C=N\N=C(\N)N[N+](=O)[O-],inactive: -0.5%
15,CN(C(=O)Cc1ccc(Cl)c(Cl)c1)[C@@H]1CCCC[C@H]1N1CCCC1,inactive: -1.5%
16,CC1(CBr)Cn2c(nc3ccccc3c2=O)S1 (stereo not given),inactive: 1.8%
17,COc1ccccc1CNC(=O)COC(=O)C(O)(c1ccccc1)c1ccccc1,inactive: -6.5%
18,CC(C)(C)C(=O)NC(Sc1ncccn1)C(Cl)(Cl)Cl (stereo not given),inactive: -3.2%
19,O=P1(N(CCCl)CCCl)NCCC(C(F)(F)F)O1 (stereo not given),inactive: -0.2%
20,Clc1n[nH]nc1-c1nn[nH][15n]1,inactive: 11.8%
21,CCOP(=O)(NC(=NC(C)c1ccccc1)NC(C)c1ccccc1)OCC (stereo not given),inactive: 12.1%
22,O=P1(Nc2ccccn2)COc2ccccc2OC1,inactive: -1.8%

row,Structure (SMILES),inhibition
1,CCC1=CC2Cc3nc4ccc(Cl)cc4c(N)c3C(C1)C2 (stereo not given),active: 85.8%
2,CCOP(=O)(Nc1ccc(C)cn1)OCC,inactive: -2.1%
3,CN(CCCl)Cc1cc(Cl)c(NC2=NCCN2)c(Cl)c1,inactive: -1.1%
4,CCC(C)N(CC(C)C)C(=S)SC(NC(C)=O)C(Cl)(Cl)Cl (stereo not given),inactive: 5.9%
5,CSc1ccc(Nc2c([N+](=O)[O-])cc([N+](=O)[O-])cc2[N+](=O)[O-])cc1,inactive: -0.1%
6,O=C(OC1CN2CCC1CC2)c1cccc([N+](=O)[O-])c1 (stereo not given),inactive: -2.6%
7,CCOC(=O)c1ccc(NC(=O)C(C)(CCl)SC)cc1 (stereo not given),inactive: -5.2%
8,O=C(O)C(=O)c1ccc(N(CCCl)CCCl)cc1,inactive: 1.9%
9,O=C(Nc1ccncc1[N+](=O)[O-])c1ccc([N+](=O)[O-])cc1[N+](=O)[O-],inactive: 5.2%
10,O=C(COc1ccccc1)OC1CN2CCC1CC2 (stereo not given),inactive: -1.8%
11,COC(=O)C1(C)COP(=O)(N2CCCC2)OC1 (stereo not given),inactive: -0.9%
12,COP1(=S)c2c(C)nn(CCC#N)c2N=C(c2ccc(F)cc2)N1C (stereo not given),inactive: 1.8%
13,O=P(Nc1ccccn1)(c1cccc2ccccc12)c1cccc2ccccc12,inactive: -1%
14,Cc1cc(SC(NC=O)C(Cl)(Cl)Cl)ncn1 (stereo not given),inactive: 1.1%
15,O=[N+]([O-])c1ccc(Nc2ccc(Oc3ccc([N+](=O)[O-])cc3[N+](=O)[O-])cc2)c([N+](=O)[O-])c1,inactive: 1.5%
16,CCOC(=O)Nc1cccc([As](=O)(O)O)c1,inactive: -0.3%
17,COP(=O)(OC)N1CC1c1ccccc1 (stereo not given),inactive: 3.4%
18,Cc1cc(SC(NC(=O)c2ccccc2)C(Cl)(Cl)Cl)nc(C(C)C)n1 (stereo not given),inactive: -4%
19,CCCCOc1ccc(C(=O)NCC2(N3CCCCC3)CCCCC2)cc1OC,inactive: 39.6%
20,CCOC(=O)Nc1ccc([As](=O)(O)O)c(O)c1,inactive: -8.4%
21,O=C(O)C(O)c1ccc(N(CCCl)CCCl)cc1 (stereo not given),inactive: -5.9%
22,CC1CCNP(=O)(N(CCCl)CCCl)O1 (stereo not given),inactive: 25%

row,Structure (SMILES),inhibition
1,O=[N+]([O-])c1cc([N+](=O)[O-])c(-c2ccn[nH]2)s1,inactive: 14.5%
2,CC(C)NC(=O)NP(=O)(Oc1ccccc1)Oc1ccccc1,inactive: -0.9%
3,O=C(OC1CN2CCC1CC2)c1cccc2[nH]cnc12 (stereo not given),inactive: 1.9%
4,CCN(CC)C(=S)SC(NC=O)C(Cl)(Cl)Cl (stereo not given),inactive: -0.9%
5,ClCCSc1nnc(-c2cccnc2)o1,inactive: 13.4%
6,COC(=O)C1(C)COP(=O)(N2CCCCCC2)OC1 (stereo not given),inactive: -9.2%
7,CC(C)c1ccc(OP(=O)(Nc2ccccn2)Oc2ccccc2F)cc1 (stereo not given),inactive: -1.7%
8,[N-]=[N+]=NC1CCCCC1NC(=O)c1cc([N+](=O)[O-])cc([N+](=O)[O-])c1 (stereo not given),inactive: -5.9%
9,Cc1ccc(OP(=O)(Nc2ccc([N+](=O)[O-])cn2)Oc2ccc(C)cc2)cc1,inactive: -2.9%
10,Cc1ccc2nc3c(c(C)c2c1)CC(C(Cl)Cl)S3 (stereo not given),inactive: 0.5%
11,O=[N+]([O-])c1ccc(-c2cc([N+](=O)[O-])c(O)c([N+](=O)[O-])c2)cc1,inactive: 11.3%
12,COc1cc(C(=O)NCC2(N3CCOCC3)CCCCC2)ccc1OCC(C)C,inactive: 0.9%
13,O=[As](O)(c1ccc(O)cc1)c1ccccc1O,inactive: -1.6%
14,C[As](=O)(O)c1cccc(C(=O)O)c1,inactive: -4.9%
15,O=[N+]([O-])c1cc(Oc2ccc([N+](=O)[O-])cc2C(F)(F)F)cc([N+](=O)[O-])c1,inactive: 1%
16,COc1ccc(N/C(=N/P(=O)(N2CCOCC2)N2CCOCC2)N2CCOCC2)cc1,inactive: -0.3%
17,O=P1(N(CCCl)CCCl)Nc2ccccc2N1,inactive: 4.2%
18,O=P1(N(CCCl)CCCl)OCCCN1CCCl (stereo not given),inactive: -1.5%
19,COc1ccc2nc(NP(=O)(c3ccccc3)c3ccccc3)sc2c1,inactive: -1.1%
20,Cc1c2c(nc3ccccc13)SC(C(Cl)Cl)C2 (stereo not given),inactive: -4.3%
21,Cc1cc(=O)[nH]c(N[N+](=O)[O-])n1,inactive: -4.3%
22,O=C(OC1CN2CCC1CC2)C12CC3CC(CC(C3)C1)C2 (stereo not given),inactive: 0%
